Test results from ChEMBL document CHEMBL4017444, “Development of N-hydroxycinnamamide-based HDAC inhibitors with improved HDAC inhibitory activity and in vitro antitumor activity” (Bioorg Med Chem, 2017).

Amino acid sequences for entries named in this document (tags omitted). A change or cut given only in a name is not applied to a line headed by its entry.
UniProt Q13547, whole entry: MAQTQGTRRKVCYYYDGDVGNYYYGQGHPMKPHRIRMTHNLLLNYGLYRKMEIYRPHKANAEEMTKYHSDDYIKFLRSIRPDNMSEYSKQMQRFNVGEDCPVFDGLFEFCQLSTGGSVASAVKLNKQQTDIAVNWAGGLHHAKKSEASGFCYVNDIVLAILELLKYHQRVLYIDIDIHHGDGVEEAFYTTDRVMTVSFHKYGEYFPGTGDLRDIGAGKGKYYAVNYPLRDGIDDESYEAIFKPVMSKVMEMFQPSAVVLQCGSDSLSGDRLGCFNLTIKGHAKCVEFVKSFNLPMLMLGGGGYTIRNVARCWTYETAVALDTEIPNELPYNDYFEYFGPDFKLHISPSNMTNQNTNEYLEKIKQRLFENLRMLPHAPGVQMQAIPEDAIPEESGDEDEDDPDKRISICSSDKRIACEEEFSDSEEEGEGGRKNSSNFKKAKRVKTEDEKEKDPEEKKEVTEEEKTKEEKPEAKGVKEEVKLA
UniProt Q92769, whole entry: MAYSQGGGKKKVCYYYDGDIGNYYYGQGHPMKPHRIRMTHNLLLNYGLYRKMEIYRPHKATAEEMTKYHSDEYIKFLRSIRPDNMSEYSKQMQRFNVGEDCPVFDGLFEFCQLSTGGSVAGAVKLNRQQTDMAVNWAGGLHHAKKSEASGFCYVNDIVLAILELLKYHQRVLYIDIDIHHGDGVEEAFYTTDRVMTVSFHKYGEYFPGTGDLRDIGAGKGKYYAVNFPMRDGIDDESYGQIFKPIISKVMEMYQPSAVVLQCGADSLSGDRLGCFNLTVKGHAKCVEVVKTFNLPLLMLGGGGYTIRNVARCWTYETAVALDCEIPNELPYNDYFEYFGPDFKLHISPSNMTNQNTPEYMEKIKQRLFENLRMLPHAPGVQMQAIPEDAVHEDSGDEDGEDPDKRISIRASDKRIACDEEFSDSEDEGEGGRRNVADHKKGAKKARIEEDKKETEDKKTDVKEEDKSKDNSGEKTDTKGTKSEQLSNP
UniProt O15379: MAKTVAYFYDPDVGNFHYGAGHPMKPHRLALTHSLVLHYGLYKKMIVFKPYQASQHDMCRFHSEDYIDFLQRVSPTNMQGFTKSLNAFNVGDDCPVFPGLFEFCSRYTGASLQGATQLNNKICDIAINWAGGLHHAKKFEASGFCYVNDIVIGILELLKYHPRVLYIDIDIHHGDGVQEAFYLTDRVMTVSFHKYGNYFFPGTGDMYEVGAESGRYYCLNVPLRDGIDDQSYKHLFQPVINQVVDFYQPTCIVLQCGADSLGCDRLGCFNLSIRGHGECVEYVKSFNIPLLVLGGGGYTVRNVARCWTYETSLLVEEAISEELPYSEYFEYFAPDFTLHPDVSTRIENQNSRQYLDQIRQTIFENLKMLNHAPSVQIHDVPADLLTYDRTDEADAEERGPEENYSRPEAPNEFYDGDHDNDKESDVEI

What was measured:
[1] = target: Histone deacetylase 1 (Homo sapiens, UniProt Q13547); assay: Inhibition of HDAC1 (unknown origin) using Ac-Leu-GlyLys(Ac)-AMC as substrate preincubated for 5 mins followed by substrate addition measured after 30 mins by fluorescence assay
[2] = target: Histone deacetylase 2 (Homo sapiens, UniProt Q92769); assay: Inhibition of HDAC2 (unknown origin) using Ac-Leu-GlyLys(Ac)-AMC as substrate preincubated for 5 mins followed by substrate addition measured after 30 mins by fluorescence assay
[3] = target: Histone deacetylase 3 (Homo sapiens, UniProt O15379); assay: Inhibition of HDAC3 (unknown origin) using Ac-Leu-GlyLys(Ac)-AMC as substrate preincubated for 5 mins followed by substrate addition measured after 30 mins by fluorescence assay

- IC50 [1]: 0.18 µM
- IC50 [2]: 0.322 µM
- IC50 [3]: 0.0075 µM
Compound: CCCC(CCC)C(=O)N[C@H](COc1ccc(/C=C/C(=O)NO)cc1OC)Cc1c[nH]c2ccccc12
